Experiment [1] concerns the target T1, Cytochrome P450 3A4 (Homo sapiens, UniProt P08684). Kind of experiment: Inhibition of CYP3A4 in human liver microsomes using midazolam as substrate assessed as suppression of 1'-hydroxymidazolam formation after 10 mins by LC-MS/MS analysis. The class given is ADME, tissue-based. A general note: Liver microsomes are vesicles of endoplasmic reticulum, rich in cytochrome P450 enzymes.

Protein sequences, listed by entry. Tags and fused reporters are not part of them.
UniProt P08684, whole entry: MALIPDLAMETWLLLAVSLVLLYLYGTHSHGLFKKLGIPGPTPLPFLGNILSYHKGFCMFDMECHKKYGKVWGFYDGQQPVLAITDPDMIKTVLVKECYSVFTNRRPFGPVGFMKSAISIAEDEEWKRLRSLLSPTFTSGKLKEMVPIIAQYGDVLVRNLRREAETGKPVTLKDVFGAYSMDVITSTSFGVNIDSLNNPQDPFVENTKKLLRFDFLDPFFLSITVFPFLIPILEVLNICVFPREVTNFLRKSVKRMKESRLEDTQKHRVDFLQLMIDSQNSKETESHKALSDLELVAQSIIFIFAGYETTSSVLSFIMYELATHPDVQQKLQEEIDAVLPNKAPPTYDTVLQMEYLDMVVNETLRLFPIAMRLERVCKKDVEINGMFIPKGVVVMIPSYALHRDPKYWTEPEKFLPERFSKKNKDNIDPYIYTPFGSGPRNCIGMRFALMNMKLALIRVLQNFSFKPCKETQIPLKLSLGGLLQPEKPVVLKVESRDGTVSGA

For experiment [2], the target named is T1, Cytochrome P450 3A4. Kind of experiment: Inhibition of CYP3A4 in human liver microsomes using testosterone as substrate assessed as suppression of 6beta-hydroxytestosterone formation after 30 mins by LC-MS/MS analysis. The class given is ADME, tissue-based.

Where only a bound is given, the exact number is not on record here.

By IC50 is commonly meant the concentration needed to halve the response being measured. In the case of `CC1(C)[C@@H]2CC[C@@]1(C)[C@@H](NC(=O)[C@H](CC1CCCCC1)NS(=O)(=O)N[C@@H](CCCCN)C(=O)O)C2.Cl`, the results for the IC50 on Cytochrome P450 3A4 [1] and at Cytochrome P450 3A4 [2] were 12 µM and more than 30 µM, respectively.

These data come from ChEMBL document CHEMBL3860098, “Sulfamide as Zinc Binding Motif in Small Molecule Inhibitors of Activated Thrombin Activatable Fibrinolysis Inhibitor (TAFIa)” (J Med Chem, 2016).
